PubChem BioAssay AID493230 (Broad Institute, 2011)

System: U2OS VEGF mRNA induction, RT-PCR
Test: VEGF mRNA induction by HIF pathway activators, dose response, orthogonal assay for HIF pathway activator project, cell-based, U2OS, RT-PCR, dry powder, set 3 (AID 493230)
Method in brief: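 Assay system – human osteosarcoma U2OS cells, endogenous VEGF-A mRNA · Input – 2,000 cells/well · Schedule – 24 h plating, then 24 h compound exposure at 37 °C · Technique – TaqMan RT-PCR, VEGF-A vs beta-actin · Control set – DMSO as negative control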

O=c1[nH]c2ccccc2n1C1CCN(Cc2ccc(O)c3ncccc23)CC1
AC40: 935 nM
